Data on 1 substance can be found in US5756504A, “Tocolytic oxytocin receptor antagonists” (priority 1996, dated 1998).

Chains of the proteins cited; added tags and fusions are not shown.
UniProt P30560, whole entry: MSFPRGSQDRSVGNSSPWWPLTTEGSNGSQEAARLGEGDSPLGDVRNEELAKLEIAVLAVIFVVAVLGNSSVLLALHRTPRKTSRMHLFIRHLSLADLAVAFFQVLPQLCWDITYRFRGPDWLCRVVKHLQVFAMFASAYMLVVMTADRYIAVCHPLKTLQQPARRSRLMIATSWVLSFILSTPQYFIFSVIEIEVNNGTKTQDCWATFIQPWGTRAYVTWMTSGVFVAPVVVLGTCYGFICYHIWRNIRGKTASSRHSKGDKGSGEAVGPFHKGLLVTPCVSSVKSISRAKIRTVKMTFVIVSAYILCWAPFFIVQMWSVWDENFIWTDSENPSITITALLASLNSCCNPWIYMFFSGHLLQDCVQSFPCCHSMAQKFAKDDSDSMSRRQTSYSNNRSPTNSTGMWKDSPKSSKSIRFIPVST

Broadly, the Kd is a measure of binding affinity in units of concentration.

The assay has as its target T1, rat liver (AVP-VI site) (Rattus norvegicus, UniProt P30560).
T1 construct: from tissue; host or cells: liver of male rats, crude membranes
Nature of the assay: [3H]AVP equilibrium saturation binding, rat liver. The following applies: read-out: Kd [^3 H]AVP rat liver; mean, n=3 saturation binding assays. How it is done: Ther., 256(1): 304-308 (1991)]. Uterine tissue was taken from nonpregnant adult Sprague-Dawley rats (Taconic Farms, Germantown, N.Y.) pretreated (18-24 h) with diethylstilbestrol propionate (DES; 300 μg/kg, i.p.). Uterine tissue (full thickness) was also taken with informed consent from nonlabor pregnant women undergoing cesarean section at 38 to 39 weeks gestation (Oregon Health Sciences Center, Portland, Oreg.). Liver and kidney medulla samples were taken from male rats and from human surgical and early postmortem donors (National Disease Research Interchange, Philadelphia Pa.; Analytical Biological Services, Wilmington, Del.).
Nonspecific binding was determined using 1 μM unlabeled OT or AVP in their respective assays. The binding reactions were initiated by the addition of tissue preparation and terminated by filtration using a Skatron cell harvester (model 7019, Skatron, Inc., Sterling, Va.). […] The final protein concentration for the various tissues in each assay ranged from 150 to 300 μg/ml [Lowry, P. H.; Rosebrough, N. J.; Farr, A. L.; Randall, R. J.; J. Biol. Chem., 193:265-275 (1951)].

Regarding [^3 H]arginine vasopressin [[^3 H]AVP], the equilibrium dissociation constant (Kd) was 0.21 nM.
